Results: patent US20050032688A1, “Use of angiotensin II fragments and analogs thereof in tissue repair” (University of Southern California, priority 1993, published 2005)

Tests used:
[1] = test system: full thickness dermal wounds; assay: Wound closure in full thickness dermal wounds, Hydron vehicle (Example 1); assay type: in vivo, Male Sprague Dawley rats; settings: days 2, 5, 6, 8 and 10, FIG. 1
Protocol: Male Sprague Dawley rats, 12 weeks old, were obtained from Simonsen Laboratories, Gilroy, Calif. On the day of surgery, the rats received intramuscular ketamine/rompum anesthesia prior to preparation for surgery. The rats were shaved and scrubbed with betadine. Four 2×2 cm full thickness dermal wounds were created on the dorsal surface of the rat. Following excision of the skin, the size of wound was outlined on a glass slide and the medicament was administered in 100 μl Hydron solution comprising 10% Hydron, 1% polyethylene glycol (MW 400) and 60% ethanol. The test materials were administered in a randomized fashion; angiotensin III was evaluated at 3 and 10 μg/wound. Controls were treated with vehicle only.
After administration of the materials, the rats were bandaged and allowed to recover from anesthesia. At days 2, 5, 6, 8 and 10, the area of the skin wounds were measured under methoxyflurane anesthesia (commercially available as Metofane from Pittman-Moore, Mundelein, Ill.). The area of the wound was determined by: (1) tracing the wound shape onto graph paper (1×1 mm squares); (2) cutting out the shape; (3) weighing the paper and comparing the weight with a 2×2 cm paper cutout; and (4) counting the number of squares.

[2] = test system: porcine coronary artery rings; settings: perhaps through nitric oxide; cited from earlier work
[3] = test system: baroreceptor-heart-reflex; settings: in vivo; cited from earlier work
[4] = test system: neurons in the paraventricular nucleus; settings: cited from earlier work
rat adrenal medulla = settings: cited from earlier work

Substance: Arg-Val-Tyr-Ile-His-Pro-Phe (RVYIHPF; printed: Arg-Val-Tyr-Ile-His-Pro-Phe) [AIII]
- wound closure relative to vehicle-treated control ([1]; 3 μg/wound in 100 μl Hydron solution): substantially accelerated
- wound closure relative to vehicle-treated control ([1]; 10 μg/wound in 100 μl Hydron solution): substantially accelerated
- dilation of coronary artery rings [2]: not observed
- sensitivity of the baroreceptor-heart-reflex [3]: impairs
- excitation of neurons [4]: excited
- evoked neuronal norepinephrine release (rat adrenal medulla): biphasic effect
- spontaneous neuronal norepinephrine release (rat adrenal medulla): biphasic effect
